Ab-14 light chain CDR variants: yeast mating affinities

The target is the same throughout: PDVDLGDISGINAS, from the HR2 region of SARS-CoV-2 spike.

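The starting antibody came from a phage panning campaign against this peptide. Designed CDR sequences, proposed from the first random library and measured here. Several design methods are mixed in this list. AlphaSeq pools MATa yeast showing the antibodies with MATalpha yeast showing the peptide. Mating (16 h, 30 °C) was followed by selection of diploids and sequencing of their barcodes. A regression on co-assayed BCL2-family reference pairs converts the normalised counts of each replicate to an apparent Kd. There are six technical replicates.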

Parent scFv Ab-14: VH joined to VL by a 15-residue (Gly4Ser)3 linker. Changes lie in the light chain CDRs alone.
VH: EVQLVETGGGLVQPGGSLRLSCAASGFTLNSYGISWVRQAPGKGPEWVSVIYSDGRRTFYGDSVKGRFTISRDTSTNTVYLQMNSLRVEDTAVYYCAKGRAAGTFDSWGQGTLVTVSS
VL: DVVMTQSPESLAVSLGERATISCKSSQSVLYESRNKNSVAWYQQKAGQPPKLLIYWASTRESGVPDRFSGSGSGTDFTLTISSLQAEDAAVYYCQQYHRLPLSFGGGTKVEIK

Positions count from residue 1 of the parent VL; S25V puts V in place of S.
This list holds designs with at most six substitutions.
The read-out is the apparent dissociation constant on a log10 scale (nM): the lower, the stronger.
The mean shown is taken over the replicates in which the pair was detected.
A pair that was not seen in any replicate is written "nd"; this usually means weak binding, but a binder can also be missed.
The authors averaged sequences with at least three values out of six and counted those with two or fewer as poor binders.
A sequence measured in both rounds can read differently, since the two assays cover different ranges.
Three control strains display no target. For all light chain designs, 4% of the pairings with them gave a signal, with a median of 2.64 and one signal in twenty below 1.59, so weak values seen in few replicates may be background.

* S25V+L30P+W56E+T59Q = -0.02 (6 of 6 replicates)
* S25L+S26M+V29W+W56N+T59Q+E61M = -0.30 (6 of 6 replicates)
* S25F+V29E+W56G+T59Q = -0.10 (6 of 6 replicates)
* S33D+N35V+W56G+S58Q = -0.20 (6 of 6 replicates)
* S25Q+R34E+W56D = 0.03 (6 of 6 replicates)
* S25W+S33Q+N35D+W56N+E61C+S62Q = 0.30 (6 of 6 replicates)
* S25L+T59K = 1.02 (5 of 6 replicates)
* S25L+L30Q+W56N+T59Q = 0.36 (6 of 6 replicates)
* Y31Q+Q95T = nd (0 of 6 replicates)
* V29R+W56G+P101T = 2.23 (6 of 6 replicates)
* S25C+Y31Q+W56A+H98F = 0.19 (6 of 6 replicates)
* S25L+S26R+V29F+W56S = -0.34 (6 of 6 replicates)
* S25L+N35T+W56N+Q96W = 0.94 (6 of 6 replicates)
* S26Y+N35D+W56H+E61C+S62D = 0.47 (6 of 6 replicates)
* S25L+S26G+S28G+W56G+T59Q = -0.45 (6 of 6 replicates)
* K24S+Q27P+V29E+L30S+W56D = -0.14 (6 of 6 replicates)
* S25V+V29W+Y31M+W56E+E61L = -0.30 (6 of 6 replicates)
* S25L+S26E+L30Q+Y31M+N35W+W56N = 0.48 (6 of 6 replicates)
* S25L+S26D+V29Q+W56N+E61L = -0.11 (6 of 6 replicates)
* S25L+V29M+W56D = -0.50 (6 of 6 replicates)
* W56E+S62A+S103A = 2.79 (4 of 6 replicates)
* S25V+K36P+W56N+T59Q = 0.12 (6 of 6 replicates)
* S25Y+L30Q+Y31T+E32H+K36A+S38N = 1.44 (6 of 6 replicates)
* S25L+Q27F+V29M+W56N = -0.42 (6 of 6 replicates)
* S25V+V29M+Y31G+K36F+W56E+S62N = 0.07 (6 of 6 replicates)
* S25L+L30D+W56N+Q96D = 0.83 (6 of 6 replicates)
* W56N+S58N = 0.67 (6 of 6 replicates)
* Q27G+V29W+S33D+N35V+W56G = -0.11 (6 of 6 replicates)
* S26Y+S28G+W56G+T59Q = -0.20 (6 of 6 replicates)
* S25L+W56N+T59Q+S62E = -0.39 (6 of 6 replicates)
* L30M+Y31E+Y97G+S103T = 1.80 (3 of 6 replicates)
* S26M+E32N+R34L+Q95V = 0.01 (1 of 6 replicates)
* S25L+V29M+W56D+T59Q+E61L = -0.21 (6 of 6 replicates)
* S25C+Q27K+Y31F+W56N = 0.02 (6 of 6 replicates)
* L30Y+Y31M+K36H+S62G = 2.63 (1 of 6 replicates)

Picked from the list: the 3 lowest averages where every replicate gave a value.

changes	mean log10 Kd (nM)	detected
S25L+V29M+W56D	-0.50	6 of 6
S25L+S26G+S28G+W56G+T59Q	-0.45	6 of 6
S25L+Q27F+V29M+W56N	-0.42	6 of 6

Data: MIT Lincoln Laboratory AlphaSeq set, Li et al. 2023, doi:10.1038/s41467-023-39022-2, as distributed in FLAb.